Test results as given in US11744819B2, “Antibiotic cannabinoid-terpene formulations” (priority 2019, dated 2023).
Read-outs that look alike come from different tables or passages of the source.

Legend:
E. faecium VRE 55A6 = format: cell-based, Enterococcus faecium
From the text: In therapeutic applications, synergy between active ingredients occurs when an observed combined therapeutic effect is greater than the sum of therapeutic effects of individual active ingredients, or a new therapeutic effect is produced that the active ingredients could not produce alone. […] In this context, the enhancement of therapeutic effect may take the form of increased efficacy or potency and/or decreased adverse effects. The synergistic effect may be mediated in whole or in part by the pharmacokinetics and/or pharmacodynamics of the active ingredients in a subject, so that the amount and proportion of the ingredients in the formulation may be synergistic in vivo. This in vivo synergy may be effected with a formulation that includes the active ingredients in amounts and proportions that are also synergistic in in vitro assays of efficacy. As used herein, the term “synergistically effective amounts” accordingly refers to amounts that are synergistic in vivo and/or in vitro. A numeric quantification of synergy is often expressed as a fractional inhibitory concentration index (FICI), which represents the sum of the fractional inhibitory concentrations (FICs) of each drug tested, where the FIC is determined for each drug by dividing the minimum inhibitory concentration (MIC, the lowest concentration of the drug which prevents visible growth of the bacterium in a standard in vitro assay-standard colorometric assay based on resazurin) of each drug when used in combination by the MIC of each drug when used alone. […]
Pre-cultures of bacteria growing in their corresponding liquid media (defined below) were diluted to an 00600 of 0.0025 and 100 μl was added to 100 μl of medium containing serial 2-fold dilutions of cannabinoid (cannabinoid stocks, in methanol or acetonitrile for acidic forms, were diluted in growth medium) in 96-well plates. Plates were then incubated for 20-24 h at 37° C., and growth was recorded as 00600 in a Thermo Scientific™ Varioskan™ Flash Multimode Reader. […]

[1] = tested on: Enterococcus faecium 33D3; details: E. faecium isolate 3303
[2] = tested on: E. faecium clinical isolate 69C6 (vancomycin resistant); details: E. faecium isolate 69C6
[3] = tested on: E. faecium clinical isolate 58C9 (vancomycin and daptomycin resistant); details: E. faecium isolate 58c9
[4] = tested on: E. faecium clinical isolate 55A6 (vancomycin and daptomycin resistant); details: E. faecium isolate 55a6

C=C(C)[C@@H]1CCC(C)=C[C@H]1c1c(O)cc(CCCCC)cc1O [CBD, cannabidiol, reference compound]
Max. fold change in MIC (E. faecium VRE 55A6; pairwise, with daptomycin): 8 fold
Max. fold change in MIC (E. faecium VRE 55A6; pairwise, with trans-caryophyllene): 2 fold
Max. fold change in MIC (E. faecium VRE 55A6; triple, with daptomycin and trans-caryophyllene): 8 fold
Fold reduction in daptomycin MIC in combination with the cannabinoid [1]: 16 Fold
Fold reduction in daptomycin MIC in combination with the cannabinoid [2]: 4 Fold
Fold reduction in daptomycin MIC in combination with the cannabinoid [3]: 32 Fold
Fold reduction in daptomycin MIC in combination with the cannabinoid [4]: 16 Fold
